In article PMC6559209 (2019):

Biological target: lactate dehydrogenase (LDH)
Assay: MST; 10 mM H2O2

| Kd | Binder |
| --- | --- |
| 580 nM | BnHD, hydrophilic domain of the Brassica napus group 3 LEA protein (domain or fragment, labelled with the Monolith NT Protein Labeling Kit RED-NHS) TAQKAQQKAQETAQAAKDKTSQAAQTTQQKAQETAQAAKDKTSQAAQTTQQKAHETTQSSKEKTSQAAQTAQEKARETKDKTGSYLSETGEAVKQKAQDAAQYTKETAQNAAQYTKETAEA |
| 70 nM | DrHD, hydrophilic domain of DrG3LEA (Deinococcus radiodurans group 3 LEA protein) (domain or fragment, labelled with the Monolith NT Protein Labeling Kit RED-NHS) VADTAKDAGQNVGQNVKREAADLADQAKDKAQDVKADVSKAADQAKDKAQDVAQNVQAGAQQAAANVKDKVQDVKADASKAADQAKDKAQDVAQNVKQGAQQAASDAKDKVQDVKADASRAADQAKDKAQDVAQNVKQSAQD |
| 210 nM | CeHD, hydrophilic domain of the Caenorhabditis elegans group 3 LEA protein (domain or fragment, labelled with the Monolith NT Protein Labeling Kit RED-NHS) AYNSAKDKAGDAWDSTKDAAGDAKDKTKSFTEKVGDKISGAYDSVKEKASDVADSFKAHSTDSKDNVENKAADAYNTAKDKASDAWDKTKDKAGEAKDKMGDAWDTTKDKAGDAWDTTKDKAGDGKGKAGDAWDTTKDKASDAWDTTKDKAGEAKDKMGEAWDHTKDKAGEAKDKASDAADDAQGKSKSMTEKIGDSISGAWESTKDTAVSAKDKTAEAAGKVGDSISGAYDTVKEKASDIADSFKAHSTDSKDNVENKAADAYNSAKDKASDAWDKTKDKAGDAKDKAADAWDTTKDKAGDAWDSTKDHAADAKDKASDAAGDAKDKSKSLTEKAGDAISGAYDSVKEKASDIADSFKAHSTNSKDNVENKASDAYNSAKDKASDAWDKTKDKAGEAKDKAGDAWDNTKDKAGNAWDSTKDKASDAWDTTKDKASDAKESAGDAADSAKDKSKSITETIGDKISGAYDSVKEKASD |
